By IC50 is commonly meant the concentration that gives 50% inhibition.

Chains of the proteins cited; added tags and fusions are not shown.
UniProt O75874, whole entry R132H: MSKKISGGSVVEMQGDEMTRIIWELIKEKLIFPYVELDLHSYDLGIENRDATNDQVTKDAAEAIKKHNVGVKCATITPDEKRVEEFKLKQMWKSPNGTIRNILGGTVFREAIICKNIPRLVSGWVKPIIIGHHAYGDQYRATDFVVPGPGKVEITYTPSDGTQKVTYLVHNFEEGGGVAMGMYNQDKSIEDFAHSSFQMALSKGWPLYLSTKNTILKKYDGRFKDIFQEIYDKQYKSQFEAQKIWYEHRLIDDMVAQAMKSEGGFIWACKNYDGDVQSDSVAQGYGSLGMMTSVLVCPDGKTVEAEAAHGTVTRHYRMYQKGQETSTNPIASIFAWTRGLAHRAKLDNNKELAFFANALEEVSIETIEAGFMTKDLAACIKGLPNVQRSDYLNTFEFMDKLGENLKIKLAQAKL

The target of the assay is R132H mutant IDH1 enzyme (Homo sapiens (Human), UniProt O75874, R132H). Put plainly: R132H IDH1 Enzymatic Assay. The format is biochemical. To be noted: R132H mutant IDH1 enzyme 1.5 nM final; luminescence readout; read-out: IC50.

Regarding `CC(C)O[C@H]1CC[C@H](C(=O)N2Cc3cccnc3Nc3ccc(C4OCCOC4C)cc32)OC1` (stereo partly drawn) [Example 33, ((2R,5S)-5-isopropoxytetrahydro-2H-pyran-2-yl)(8-(3-methyl-1,4-dioxan-2-yl)-5,11-dihydro-6H-benzo[b]pyrido[2,3-e][1,4]diazepin-6-yl)methanone], the IC50 was determined as 46 nM.

As to `CO[C@H]1CC[C@H](C(=O)N2Cc3cccnc3Nc3ccc(N4CCn5c(cnc5C(C)C)C4)cc32)CC1` [Example 278, 6-[(trans-4-methoxycyclohexyl)carbonyl]-8-[3-(1-methylethyl)-5,6-dihydroimidazo[1,5-a]pyrazin-7(8H)-yl]-6,11-dihydro-5H-pyrido[2,3-b][1,5]benzodiazepine], the IC50 worked out at 597 nM. Take `CO[C@H]1CC[C@H](C(=O)N2Cc3cccnc3Nc3ccc(N4CCOC(c5ccccc5)C4)cc32)CC1` (stereo partly drawn) [Example 257, 6-[(trans-4-methoxycyclohexyl)carbonyl]-8-(2-phenylmorpholin-4-yl)-6,11-dihydro-5H-pyrido[2,3-b][1,5]benzodiazepine]: the IC50 came out at 221 nM. The value for `CO[C@H]1C[C@H]2CC[C@@H](C1)N2c1ccc2c(c1)N(C(=O)[C@H]1CC[C@H](OC(C)C)CO1)Cc1cccnc1N2` [Example 161, ((2R,5S)-5-isopropoxytetrahydro-2H-pyran-2-yl)(8-((1R,3R,5S)-3-methoxy-8-azabicyclo[3.2.1]octan-8-yl)-5,11-dihydro-6H-benzo[b]pyrido[2,3-e][1,4]diazepin-6-yl)methanone] was 18 nM. The value for `CO[C@H]1CC[C@H](C(=O)N2Cc3cccnc3Nc3ccc(-c4cnc5c(c4)OCCN5C)cc32)CC1` [Example 402, 6-[(trans-4-methoxycyclohexyl)carbonyl]-8-(4-methyl-3,4-dihydro-2H-pyrido[3,2-b][1,4]oxazin-7-yl)-6,11-dihydro-5H-pyrido[2,3-b][1,5]benzodiazepine] was 73 nM. `CC(C)O[C@H]1CC[C@H](C(=O)N2Cc3cccnc3Nc3ccc([C@@H]4CC[C@H](C)O4)cc32)OC1` (single isomer, unassigned) [Example 535]: the 50% inhibitory concentration (IC50) was found to be 34 nM. As for `CO[C@H]1CC[C@H](C(=O)N2Cc3cccnc3Nc3ccc(N4CCn5nc(C)cc5C4)cc32)CC1` [Example 270, 6-[(trans-4-methoxycyclohexyl)carbonyl]-8-(2-methyl-6,7-dihydropyrazolo[1,5-a]pyrazin-5(4H)-yl)-6,11-dihydro-5H-pyrido[2,3-b][1,5]benzodiazepine], the figure is 251 nM.

As for `CC(C)(C)[C@H]1CC[C@H](C(=O)N2Cc3cccnc3Nc3ccccc32)CC1` [Example 70, 6-[(trans-4-tert-butylcyclohexyl)carbon-yl]-6,11-dihydro-5H-pyrido[2,3-b][1,5]benzodiazepine], the IC50 turned out to be 36 nM. Take `CC(C)O[C@H]1CC[C@H](C(=O)N2Cc3cccnc3Nc3ccc(N4C[C@]5(C)C[C@H]4CO5)cc32)OC1` [Example 48, ((2R,5S)-5-isopropoxytetrahydro-2H-pyran-2-yl)(8-((1S,4S)-1-methyl-2-oxa-5-azabicyclo[2.2.1]heptan-5-yl)-5,11-dihydro-6H-benzo[b]pyrido[2,3-e][1,4]diazepin-6-yl)methanone]: the IC50 turned out to be 26 nM.

As to `CC1(C)CC(C(=O)N2Cc3cccnc3Nc3ccc(N4CC5CCC4CN5)cc32)C1` (stereo not drawn) [Example 194, 8-(2,5-diazabicyclo[2.2.2]oct-2-yl)-6-[(3,3-dimethylcyclobutyl)carbonyl]-6,11-dihydro-5H-pyrido[2,3-b][1,5]benzodiazepine], the IC50 came out at 1040 nM. As for `CO[C@H]1COC2(CCN(c3ccc4c(c3)N(C(=O)[C@H]3CC[C@H](OC(C)C)CC3)Cc3cccnc3N4)CC2)C1` [Example 308, 8-[(3R)-3-methoxy-1-oxa-8-azaspiro[4.5]dec-8-yl]-6-{[trans-4-(1-methylethoxy)cyclohexyl]car-bonyl}-6,11-dihydro-5H-pyrido[2,3-b][1,5]benzodiazepine], the figure is 64 nM; as for `CO[C@H]1CC[C@H](C(=O)N2Cc3cccnc3Nc3ccc(N4CCC4=O)cc32)CC1` [Example 495, 1-{6-[(trans-4-methoxycyclohexyl)carbonyl]-6,11-dihydro-5H-pyrido[2,3-b][1,5]benzodiazepin-8-yl}azetidin-2-one], 543 nM; as for `O=C([C@H]1CC[C@H](C2CCOCC2)CC1)N1Cc2cccnc2Nc2ccc(N3CCOCC3)cc21` [Example 131, 8-morpholin-4-yl-6-{[trans-4-(tetrahydro-2H-pyran-4-yl)cyclohexyl]carbonyl}-6,11-dihydro-5H-pyrido[2,3-b][1,5]benzodiazepine], 103 nM. As to `O=C([C@H]1CC[C@H](NC2(C(F)(F)F)CC2)CC1)N1Cc2cccnc2Nc2ccc(C3CCOCC3)cc21` [Example 381, trans-4-{[8-(tetrahydro-2H-pyran-4-yl)-5,11-dihydro-6H-pyrido[2,3-b][1,5]benzodiazepin-6-yl]carbonyl}-N-[1-(trifluoromethyl)cyclopropyl] cyclohexanamine], the IC50 worked out at 15 nM. With `C[C@H](N[C@H]1CC[C@H](C(=O)N2Cc3cccnc3Nc3ccc(C4CCOCC4)cc32)CC1)C(F)(F)F` [Example 463, trans-4-{[8-(tetrahydro-2H-pyran-4-yl)-5,11-dihydro-6H-pyrido[2,3-b][1,5]benzodiazepin-6-yl]carbonyl}-N-[(1S)-2,2,2-trifluoro-1-methylethyl]cyclohexanamine], the IC50 came out at 48 nM. Take `COC1CCN(c2ccc3c(c2)N(C(=O)[C@H]2CC[C@H](OC)CC2)Cc2cccnc2N3)CC1(F)F` (stereo partly drawn) [Example 210, 8-(3,3-difluoro-4-methoxypiperidin-1-yl)-6-[(trans-4-methoxycyclohexyl)carbonyl]-6,11-dihydro-5H-pyrido[2,3-b][1,5]benzodiazepine]: the IC50 stood at 250 nM. Regarding `CCO[C@H]1CC[C@H](C(=O)N2Cc3cccnc3Nc3ccc(N4CCOCC4)cc32)CC1` [Example 113, 6-[(trans-4-ethoxycyclohexyl)carbon-yl]-8-morpholin-4-yl-6,11-dihydro-5H-pyrido[2,3-b][1,5]benzodiazepine], the IC50 came to 194 nM.

For `CO[C@H]1CC[C@H](C(=O)N2Cc3cccnc3Nc3ccc(N(C)C4(C)COC4)cc32)CC1` [Example 280, 6-[(trans-4-methoxycyclohexyl)carbonyl]-N-methyl-N-(3-methyloxetan-3-yl)-6,11-dihydro-5H-pyrido[2,3-b][1,5]benzodiazepin-8-amine], the IC50 was found to be 447 nM.

Consider `CO[C@H]1CC[C@H](C(=O)N2Cc3cccnc3Nc3ccc(C4(O)CCCO4)cc32)CC1` (stereo partly drawn) [Example 362, 2-{6-[(trans-4-methoxycyclohexyl)carbonyl]-6,11-dihydro-5H-pyrido[2,3-b][1,5]benzodiazepin-8-yl}tetrahydrofuran-2-ol], for which the IC50 came to 307 nM. The value for `CO[C@H]1CC[C@H](C(=O)N2Cc3cccnc3Nc3ccc(C(N4CCCC4)C(F)(F)F)cc32)CC1` (relative stereo) [Example 7, 6-[(Trans-4-methoxycyclohexyl)carbonyl]-8-(2,2,2-trifluoro-1-pyrrolidin-1-ylethyl)-6,11-dihydro-5H-pyrido[2,3-b][1,5]benzodiazepine] was 182 nM; that for `O=C(C1CCN(CC(F)(F)F)CC1)N1Cc2cccnc2Nc2ccc(N3CCOCC3)cc21` [Example 112, 8-morpholin-4-yl-6-{[1-(2,2,2-trifluoroethyl)piperidin-4-yl]carbonyl}-6,11-dihydro-5H-pyrido[2,3-b][1,5]benzodiazepine] was 84 nM.

These data come from patent publication US10442819B2, “Tricyclic compounds as inhibitors of mutant IDH enzymes” (Merck Sharp & Dohme Corp., priority 2014, dated 2019).
